Reference: patent US12219958B2, “Glufosinate additive for improved weed control” (THE BOARD OF TRUSTEES OF THE UNIVERSITY OF ARKANSAS, priority 2019, dated 2025)

Experiments:
[1] = test system: johnsongrass; test: Field experiment, johnsongrass control with glufosinate + additive at 10 pm (Example 5, FIG. 12); type: in vivo; details: low-light conditions (10 pm); glufosinate 655 g ai/ha + additive 280 g ai/ha; 15 to 20-cm tall johnsongrass
[2] = test system: Enlist cotton, XtendFlex cotton, LibertyLink GT27 soybean, and LibertyLink corn; details: 10 pm; glufosinate 655 g ai/ha + additive 280 g ai/ha
[3] = test system: Palmer amaranth; test: Field experiment, Palmer amaranth control with glufosinate + additive at 10 pm (Example 5, FIG. 11); type: in vivo, Amaranthus palmeri; details: low-light conditions (10 pm); glufosinate 655 g ai/ha + additive 280 g ai/ha; 25 to 30-cm tall Palmer amaranth
[4] = test system: native large crabgrass populations; test: Field experiment, large crabgrass control (Examples 2 and 3, FIG. 6); type: in vivo
[5] = test system: native Virginia buttonweed population; test: Field experiment, Virginia buttonweed control (Examples 2 and 3, FIG. 7); details: NBD-CL 269 g ai/ha + NIS 0.25% v/v without glufosinate; 10 am, 10 pm; 20 days after application
[6] = test system: native mixture of Palmer amaranth and waterhemp; test: Field experiment, visual Palmer amaranth/waterhemp control (Example 2, FIG. 5); type: in vivo, Amaranthus palmeri, Amaranthus tuberculatus
[7] = low-light conditions (10 pm), glufosinate 655 g ai/ha + NBD-CL 269 g ai/ha + NIS 0.25% v/v

O=[N+]([O-])c1ccc(Cl)c2nonc12
increase in glufosinate efficacy of johnsongrass [1]: greatest increase | crop response [2]: not eliciting a negative crop response | increase in glufosinate efficacy of Palmer amaranth [3]: greatest increase | herbicidal activity on its own ([4]; NBD-CL 269 g ai/ha + NIS 0.25% v/v without glufosinate, 10 am, 10 pm, 20 days after application): does not have herbicidal activity | large crabgrass control with glufosinate+NIS on addition of the additive [4, 7]: increased | herbicidal activity on its own [5]: does not have herbicidal activity | herbicidal activity on its own ([6]; NBD-CL 269 g ai/ha + NIS 0.25% v/v without glufosinate, 10 am, 10 pm, 21 days after application): does not have herbicidal activity | Palmer amaranth and waterhemp control with glufosinate+NIS on addition of the additive [6, 7]: increased
